Data published in PubChem BioAssay (NCI).
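Cultured in 96-well plates, cells were exposed to test compound for 48 hours across five concentrations. GI50 is the concentration that inhibits growth by half. At the TGI there is no net growth.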

What was measured:
Experiment in all cases: NCI-60 cell line screen, 48 h
786-0 renal = test system: 786-0 renal
A498 renal = test system: A498 renal
A549 NSCLC = test system: A549 NSCLC
ACHN renal = test system: ACHN renal
BT-549 breast = test system: BT-549 breast
CAKI-1 renal = test system: CAKI-1 renal
CCRF-CEM leukemia = test system: CCRF-CEM leukemia
COLO 205 colon = test system: COLO 205 colon
DU-145 prostate = test system: DU-145 prostate
EKVX NSCLC = test system: EKVX NSCLC
HCC-2998 colon = test system: HCC-2998 colon
HCT-116 colon = test system: HCT-116 colon
HCT-15 colon = test system: HCT-15 colon
HL-60(TB) leukemia = test system: HL-60(TB) leukemia
HOP-62 NSCLC = test system: HOP-62 NSCLC
HOP-92 NSCLC = test system: HOP-92 NSCLC
HS 578T breast = test system: HS 578T breast
HT29 colon = test system: HT29 colon
IGROV1 ovarian = test system: IGROV1 ovarian
K-562 leukemia = test system: K-562 leukemia
KM12 colon = test system: KM12 colon
LOX IMVI melanoma = test system: LOX IMVI melanoma
M14 melanoma = test system: M14 melanoma
MALME-3M melanoma = test system: MALME-3M melanoma
MCF7 breast = test system: MCF7 breast
MDA-MB-231 breast = test system: MDA-MB-231 breast
MDA-MB-435 = test system: MDA-MB-435
MDA-N = test system: MDA-N
MOLT-4 leukemia = test system: MOLT-4 leukemia
NCI-H226 lung = test system: NCI-H226 lung
NCI-H23 lung = test system: NCI-H23 lung
NCI-H322M lung = test system: NCI-H322M lung
NCI-H460 lung = test system: NCI-H460 lung
NCI-H522 lung = test system: NCI-H522 lung
NCI/ADR-RES ovarian = test system: NCI/ADR-RES ovarian
OVCAR-3 ovarian = test system: OVCAR-3 ovarian
OVCAR-4 ovarian = test system: OVCAR-4 ovarian
OVCAR-5 ovarian = test system: OVCAR-5 ovarian
OVCAR-8 ovarian = test system: OVCAR-8 ovarian
PC-3 prostate = test system: PC-3 prostate
RPMI-8226 leukemia = test system: RPMI-8226 leukemia
RXF 393 renal = test system: RXF 393 renal
SF-268 CNS = test system: SF-268 CNS
SF-295 CNS = test system: SF-295 CNS
SF-539 CNS = test system: SF-539 CNS
SK-MEL-2 melanoma = test system: SK-MEL-2 melanoma
SK-MEL-28 melanoma = test system: SK-MEL-28 melanoma
SK-MEL-5 melanoma = test system: SK-MEL-5 melanoma
SK-OV-3 ovarian = test system: SK-OV-3 ovarian
SN12C renal = test system: SN12C renal
SNB-19 CNS = test system: SNB-19 CNS
SNB-75 CNS = test system: SNB-75 CNS
SW-620 colon = test system: SW-620 colon
T-47D breast = test system: T-47D breast
TK-10 renal = test system: TK-10 renal
U251 CNS = test system: U251 CNS
UACC-257 melanoma = test system: UACC-257 melanoma
UACC-62 melanoma = test system: UACC-62 melanoma
UO-31 renal = test system: UO-31 renal

With `O=[As](O)(O)c1ccc([As](=O)(O)O)cc1` the GI50 (786-0 renal) was > 100 µM, the TGI (786-0 renal) was > 100 µM and the GI50 (A498 renal) was > 100 µM. The TGI (A498 renal) was > 100 µM, the GI50 (A549 NSCLC) was > 100 µM and the TGI (A549 NSCLC) was > 100 µM. The GI50 (ACHN renal) was > 100 µM, the TGI (ACHN renal) was > 100 µM and the GI50 (BT-549 breast) was > 100 µM. The TGI (BT-549 breast) was > 100 µM, the GI50 (CAKI-1 renal) was > 100 µM and the TGI (CAKI-1 renal) was > 100 µM. For the same compound, the GI50 (CCRF-CEM leukemia) was > 100 µM, the TGI (CCRF-CEM leukemia) was > 100 µM and the GI50 (COLO 205 colon) was > 100 µM. For the same compound, the TGI (COLO 205 colon) was > 100 µM, the GI50 (DU-145 prostate) was > 100 µM and the TGI (DU-145 prostate) was > 100 µM. The GI50 (EKVX NSCLC) was > 100 µM, the TGI (EKVX NSCLC) was > 100 µM and the GI50 (HCC-2998 colon) was > 100 µM. For the same compound, the TGI (HCC-2998 colon) was > 100 µM, the GI50 (HCT-116 colon) was > 100 µM and the TGI (HCT-116 colon) was > 100 µM. The GI50 (HCT-15 colon) was > 100 µM, the TGI (HCT-15 colon) was > 100 µM and the GI50 (HL-60(TB) leukemia) was > 100 µM. The TGI (HL-60(TB) leukemia) was > 100 µM, the GI50 (HOP-62 NSCLC) was > 100 µM and the TGI (HOP-62 NSCLC) was > 100 µM. The GI50 (HOP-92 NSCLC) was > 100 µM, the TGI (HOP-92 NSCLC) was > 100 µM and the GI50 (HS 578T breast) was > 100 µM. The TGI (HS 578T breast) was > 100 µM, the GI50 (HT29 colon) was > 100 µM and the TGI (HT29 colon) was > 100 µM. For the same compound, the GI50 (IGROV1 ovarian) was > 100 µM, the TGI (IGROV1 ovarian) was > 100 µM and the GI50 (K-562 leukemia) was > 100 µM. For the same compound, the TGI (K-562 leukemia) was > 100 µM, the GI50 (KM12 colon) was > 100 µM and the TGI (KM12 colon) was > 100 µM. For the same compound, the GI50 (LOX IMVI melanoma) was > 100 µM, the TGI (LOX IMVI melanoma) was > 100 µM and the GI50 (M14 melanoma) was > 100 µM. The TGI (M14 melanoma) was > 100 µM, the GI50 (MALME-3M melanoma) was > 100 µM and the TGI (MALME-3M melanoma) was > 100 µM. For the same compound, the GI50 (MCF7 breast) was > 100 µM, the TGI (MCF7 breast) was > 100 µM and the GI50 (MDA-MB-231 breast) was > 100 µM. For the same compound, the TGI (MDA-MB-231 breast) was > 100 µM, the GI50 (MDA-MB-435) was > 100 µM and the TGI (MDA-MB-435) was > 100 µM. The GI50 (MDA-N) was > 100 µM, the TGI (MDA-N) was > 100 µM and the GI50 (MOLT-4 leukemia) was > 100 µM. For the same compound, the TGI (MOLT-4 leukemia) was > 100 µM, the GI50 (NCI-H226 lung) was > 100 µM and the TGI (NCI-H226 lung) was > 100 µM. For the same compound, the GI50 (NCI-H23 lung) was > 100 µM, the TGI (NCI-H23 lung) was > 100 µM and the GI50 (NCI-H322M lung) was > 100 µM. The TGI (NCI-H322M lung) was > 100 µM, the GI50 (NCI-H460 lung) was > 100 µM and the TGI (NCI-H460 lung) was > 100 µM. For the same compound, the GI50 (NCI-H522 lung) was > 100 µM, the TGI (NCI-H522 lung) was > 100 µM and the GI50 (NCI/ADR-RES ovarian) was > 100 µM. The TGI (NCI/ADR-RES ovarian) was > 100 µM, the GI50 (OVCAR-3 ovarian) was > 100 µM and the TGI (OVCAR-3 ovarian) was > 100 µM. For the same compound, the GI50 (OVCAR-4 ovarian) was > 100 µM, the TGI (OVCAR-4 ovarian) was > 100 µM and the GI50 (OVCAR-5 ovarian) was > 100 µM. The TGI (OVCAR-5 ovarian) was > 100 µM, the GI50 (OVCAR-8 ovarian) was > 100 µM and the TGI (OVCAR-8 ovarian) was > 100 µM. The GI50 (PC-3 prostate) was > 100 µM, the TGI (PC-3 prostate) was > 100 µM and the GI50 (RPMI-8226 leukemia) was > 100 µM. For the same compound, the TGI (RPMI-8226 leukemia) was > 100 µM, the GI50 (RXF 393 renal) was > 100 µM and the TGI (RXF 393 renal) was > 100 µM. For the same compound, the GI50 (SF-268 CNS) was > 100 µM, the TGI (SF-268 CNS) was > 100 µM and the GI50 (SF-295 CNS) was > 100 µM. The TGI (SF-295 CNS) was > 100 µM, the GI50 (SF-539 CNS) was > 100 µM and the TGI (SF-539 CNS) was > 100 µM. For the same compound, the GI50 (SK-MEL-2 melanoma) was > 100 µM, the TGI (SK-MEL-2 melanoma) was > 100 µM and the GI50 (SK-MEL-28 melanoma) was > 100 µM. The TGI (SK-MEL-28 melanoma) was > 100 µM, the GI50 (SK-MEL-5 melanoma) was > 100 µM and the TGI (SK-MEL-5 melanoma) was > 100 µM. For the same compound, the GI50 (SK-OV-3 ovarian) was > 100 µM, the TGI (SK-OV-3 ovarian) was > 100 µM and the GI50 (SN12C renal) was > 100 µM. The TGI (SN12C renal) was > 100 µM, the GI50 (SNB-19 CNS) was > 100 µM and the TGI (SNB-19 CNS) was > 100 µM. The GI50 (SNB-75 CNS) was > 100 µM, the TGI (SNB-75 CNS) was > 100 µM and the GI50 (SW-620 colon) was > 100 µM. For the same compound, the TGI (SW-620 colon) was > 100 µM, the GI50 (T-47D breast) was > 100 µM and the TGI (T-47D breast) was > 100 µM. For the same compound, the GI50 (TK-10 renal) was > 100 µM, the TGI (TK-10 renal) was > 100 µM and the GI50 (U251 CNS) was > 100 µM. The TGI (U251 CNS) was > 100 µM, the GI50 (UACC-257 melanoma) was > 100 µM and the TGI (UACC-257 melanoma) was > 100 µM. The GI50 (UACC-62 melanoma) was > 100 µM, the TGI (UACC-62 melanoma) was > 100 µM and the GI50 (UO-31 renal) was > 100 µM. The TGI (UO-31 renal) was > 100 µM.
